## Binding of CDR-mutated scFvs to a peptide of the spike HR2 region

Antigen: PDVDLGDISGINAS, a 14-residue peptide of the SARS-CoV-2 spike HR2 region.

The variants keep the light chain, the linker and the frameworks of Ab-14 (scFv order VH, the linker GGGGSGGGGSGGGGS, VL).
VH: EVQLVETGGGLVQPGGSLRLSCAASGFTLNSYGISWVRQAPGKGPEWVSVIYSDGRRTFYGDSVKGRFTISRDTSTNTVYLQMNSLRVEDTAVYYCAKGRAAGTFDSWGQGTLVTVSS
VL: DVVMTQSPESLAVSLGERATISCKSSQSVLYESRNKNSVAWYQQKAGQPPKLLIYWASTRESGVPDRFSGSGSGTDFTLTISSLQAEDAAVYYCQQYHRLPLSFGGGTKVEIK

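Phage display of a naive human antibody library on the peptide gave the parent. This is the validation round: designs drawn from the data on random variants, tested in the same kind of assay. Their group label is 14H_GPLM_HC (GPLM: also part of the Gaussian process libraries; HC: hill climbing; a sequence that several methods proposed may carry one label only). In AlphaSeq, yeast of one mating type display the scFv and yeast of the other type display the target. The frequency of each diploid, read from paired DNA barcodes, reflects how well the two displayed proteins bind. The ratio of observed to expected reads was calibrated, replicate by replicate, on BCL2-family standards whose Kd was known from biolayer interferometry. Mating was done six times.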

Substitutions are numbered in sequence along the VH above, starting at 1 (not Kabat).
Scale: log10 of Kd in nM, estimated from mating counts; low values are strong binders.
A mean of the replicates is given; it leaves out those without a signal.
Where no diploid with the target was found in that replicate, the entry reads "nd": below detection, most likely a poor binder, though not proof of it.

{"changes": "S31E/D106S/S107F", "log10 Kd (nM) by replicate": "nd / nd / nd / nd / nd / nd", "log10 Kd (nM), mean": "nd", "empty controls": "0 of 18"}
{"changes": "S31E/S63M/G103V/S107Q", "log10 Kd (nM) by replicate": "nd / nd / nd / nd / nd / nd", "log10 Kd (nM), mean": "nd", "empty controls": "0 of 18"}
{"changes": "S31D/R100K/S107K", "log10 Kd (nM) by replicate": "nd / nd / nd / nd / nd / nd", "log10 Kd (nM), mean": "nd", "empty controls": "0 of 18"}
{"changes": "R56L/G61I/R100Q", "log10 Kd (nM) by replicate": "nd / nd / nd / 1.13 / nd / nd", "log10 Kd (nM), mean": "1.13", "empty controls": "0 of 18"}
{"changes": "S31D/A101N/D106I", "log10 Kd (nM) by replicate": "nd / nd / nd / nd / nd / nd", "log10 Kd (nM), mean": "nd", "empty controls": "0 of 18"}
{"changes": "T28S/S31N/F59Q/G61I", "log10 Kd (nM) by replicate": "nd / 0.66 / 1.34 / 1.73 / 0.87 / 0.92", "log10 Kd (nM), mean": "1.10", "empty controls": "0 of 18"}
{"changes": "S31E/G61S/A101H", "log10 Kd (nM) by replicate": "0.27 / -0.01 / -0.18 / 0.10 / 0.10 / -0.20", "log10 Kd (nM), mean": "0.01", "empty controls": "0 of 18"}
{"changes": "S31D/G61I/A102G", "log10 Kd (nM) by replicate": "2.14 / nd / nd / 2.54 / nd / 2.51", "log10 Kd (nM), mean": "2.40", "empty controls": "0 of 18"}
{"changes": "T28D/G61I/T104I", "log10 Kd (nM) by replicate": "nd / nd / nd / nd / nd / nd", "log10 Kd (nM), mean": "nd", "empty controls": "0 of 18"}
{"changes": "S31E/G61T/A101Q", "log10 Kd (nM) by replicate": "-0.32 / 0.02 / -0.26 / -0.40 / 0.19 / 0.51", "log10 Kd (nM), mean": "-0.04", "empty controls": "0 of 18"}
{"changes": "T28S/G61S/T104F", "log10 Kd (nM) by replicate": "nd / nd / nd / nd / nd / nd", "log10 Kd (nM), mean": "nd", "empty controls": "0 of 18"}
{"changes": "T28D/G103D/D106N", "log10 Kd (nM) by replicate": "nd / nd / nd / nd / nd / 1.37", "log10 Kd (nM), mean": "1.37", "empty controls": "1 of 18 (3.62)"}
{"changes": "S31E/G103V/D106C/S107V", "log10 Kd (nM) by replicate": "nd / nd / nd / nd / nd / nd", "log10 Kd (nM), mean": "nd", "empty controls": "0 of 18"}
{"changes": "T28W/G61D/R100Q/A101L", "log10 Kd (nM) by replicate": "nd / 1.35 / 1.31 / nd / 1.55 / 2.82", "log10 Kd (nM), mean": "1.75", "empty controls": "0 of 18"}
{"changes": "S31E/G61T/A101F/S107F", "log10 Kd (nM) by replicate": "nd / nd / nd / nd / nd / nd", "log10 Kd (nM), mean": "nd", "empty controls": "0 of 18"}
{"changes": "N30M/R100Q/A101L", "log10 Kd (nM) by replicate": "nd / nd / 0.88 / 0.57 / nd / 0.69", "log10 Kd (nM), mean": "0.71", "empty controls": "0 of 18"}
{"changes": "G61S/R100Q/A101L/S107R", "log10 Kd (nM) by replicate": "1.14 / 1.12 / 0.65 / 0.59 / 0.92 / 1.11", "log10 Kd (nM), mean": "0.92", "empty controls": "3 of 18 (2.69)"}
{"changes": "R56H/G61I/R100Q/A101L", "log10 Kd (nM) by replicate": "nd / nd / 0.70 / nd / nd / nd", "log10 Kd (nM), mean": "0.70", "empty controls": "0 of 18"}
{"changes": "S31E/A101M/D106I", "log10 Kd (nM) by replicate": "nd / nd / nd / nd / nd / nd", "log10 Kd (nM), mean": "nd", "empty controls": "0 of 18"}
{"changes": "S31E/G61T/R100N", "log10 Kd (nM) by replicate": "0.13 / -0.06 / 0.29 / 0.14 / 0.02 / 0.33", "log10 Kd (nM), mean": "0.14", "empty controls": "0 of 18"}
{"changes": "S31E/D106V/S107F", "log10 Kd (nM) by replicate": "1.03 / 1.38 / 0.16 / 1.44 / 1.80 / -0.09", "log10 Kd (nM), mean": "0.95", "empty controls": "0 of 18"}
{"changes": "G61S/R100K/A102G/S107T", "log10 Kd (nM) by replicate": "2.78 / 1.13 / 1.43 / 1.53 / 2.09 / 0.91", "log10 Kd (nM), mean": "1.65", "empty controls": "0 of 18"}
{"changes": "T28Q/G61S/R100Q/A102G", "log10 Kd (nM) by replicate": "1.74 / 2.08 / 2.11 / 2.73 / 2.97 / 2.23", "log10 Kd (nM), mean": "2.31", "empty controls": "0 of 18"}
{"changes": "G26K/G61D/R100Q/A101V", "log10 Kd (nM) by replicate": "0.60 / 0.73 / 0.27 / nd / 1.87 / 0.80", "log10 Kd (nM), mean": "0.86", "empty controls": "0 of 18"}

Top 2 of the variants detected in all replicates, tightest first:

{"changes": "S31E/G61T/A101Q", "log10 Kd (nM) by replicate": "-0.32 / 0.02 / -0.26 / -0.40 / 0.19 / 0.51", "log10 Kd (nM), mean": "-0.04", "empty controls": "0 of 18"}
{"changes": "S31E/G61S/A101H", "log10 Kd (nM) by replicate": "0.27 / -0.01 / -0.18 / 0.10 / 0.10 / -0.20", "log10 Kd (nM), mean": "0.01", "empty controls": "0 of 18"}

The parent sequence was in this pool as ten entries: three were never detected, three once, and four in most replicates, with averages from 0.34 to 2.37.
Nonspecific signal, from three strains lacking the peptide, appeared in 1% of pairings of all heavy chain designs, centred on 2.08 (5% of these signals below 0.84); values are not corrected for it. Also given: how often the same scFv was detected with the empty control strains, with their mean in brackets.
The authors averaged sequences with at least three values out of six and counted those with two or fewer as poor binders.
Values of this round are not directly comparable with the first-round values of the same sequences.

Reference: Li et al. 2023, doi:10.1038/s41467-023-39022-2. File: FLAb, binding data.